We go through 1 substance from US6352716B1, “Steroidal liposomes” (The Liposome Company Inc., priority 1984, dated 2002).

The format of this series is physicochemical. The settings on record: pH 7.3. As to the method: The 2-amino-2-methyl-1,3-propanediol salt of cholesterol hemisuccinate (50 mg) was added to a 1 ml solution of arsenazo III (4.5 mM, final concentration) in 0.01 M 2-amino-2-methyl-1,3-propanediol-HCl (pH 7.3), 0.07 M KCl, 0.07 M NaCl. The suspension of CHS-MLVs was formed by mixing vortically with glass beads. The CHS-MLVs were pelleted by centrifugation at 10,000×g for 15 minutes, and the resulting pellet was washed three times as described in Section 6.1.1.
The 2-aminoethanol salt of cholesterol hemisuccinate (50 mg) was added to a 1 ml solution of arsenazo III (4.5 mM, final concentration) in 0.01 M 2-aminoethanol-HCl (pH 7.3), 0.07 M KCl, 0.07 M NaCl. The suspension of CHS-MLVs was formed by mixing vertically with glass beads. The CHS-MLVs were pelleted by centrifugation at 10,000×g for 15 minutes, and the resulting pellet was washed three times as described in Section 6.1.1.
The suspension of CHS-MLVs was formed by mixing vertically with glass beads. The CHS-MLVs were pelleted by centrifugation at 10,000×g for 15 minutes, and the resulting pellet was washed three times as described in Section 6.1.1.
The triethanolamine salt of cholesterol hemisuccinate (50 mg) was added to a 1 ml solution of arsenazo III (4.5 mM, final concentration) in 0.01 M triethanolamine-HCL (pH 7.3), 0.07 M KCl, 0.07 M NaCl. The suspension of CHS-MLVs was formed by mixing vortically with glass beads. […]

On to “bis-tris-propane salt of cholesterol hemisuccinate”, for which the “entrapment of arsenazo III (colour of washed pellet)” value was “red in color indicating entrapment of the arsenazo III”.
